Apoferritin bind = candidate novel general anesthetic via apoferritin binding | P02791 | 350,000 tested, 0.074% active | AID 485281 | Potency, µM (series often up to 77.5 µM), for the others: at the top dose activity change, negative = displacement, usual class: inhibitors | apoferritin/1-aminoanthracene competitive binding, fluorescence; also: potency is read from the fitted curve at half-maximal effect; % is scaled to controls: 0 for no effect and ±100 for the full control effect; nearly all actives have a fitted effect of over 20% in size
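Concentration-response curves derived by four-parameter Hill fitting of normalized fluorescence, where compounds displaced 1-AMA from 10 uM horse apoferritin following a brief 10 min room-temperature incubation; propofol titration acted as positive control.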
rTrxR1 inhibitor = rat TrxR1 inhibition; O89049; recombinant rTrxR1, NADPH fluorescence consumption, selenite substrate; Potency, µM (highest dose often 114 µM), without a hit: at the highest dose activity change, negative = inhibition, usual class: inhibitors; 390,000 tested, 1% active; AID 588453; also: potency is read from the fitted curve at half-maximal effect; % is scaled to controls: 0 for no effect and ±100 for the full control effect; nearly all actives have a fitted effect of over 65% in size
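Rat TrxR1 (90 nM in the dispensed reagent) was pre-reduced with 400 uM NADPH for 5 min at room temperature, then incubated with compound for 15 min. After 400 uM selenite was added, NADPH fluorescence (Ex 340/Em 450 nm) was followed for 8 min.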
ClpP mod = qHTS Assay for Activators of ClpP. purified B. subtilis ClpP, FRET peptide cleavage, 20 min. ATP-dependent Clp protease proteolytic subunit (Bacillus subtilis (strain 168)), P80244. AID 651965, 2013. Potency, µM (top dose mostly 57.5 µM), inactives show at the highest dose activity change, negative = active. 340,000 tested, 1.9% active; active = well fitted falling curve with a large enough effect; inconclusive = small, poorly fitted or top-dose-only effect; inactive = no such curve, though single readings can be large or run the other way; also: potency is read from the fitted curve at half-maximal effect; the source files actives as falling curves though it sought activators and does not explain the sign; nearly all actives have a fitted effect of over 65% in size
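Purified B. subtilis ClpP, 10 microg/mL final in Tris/HCl pH8 with KCl, BSA, glycerol and Tween-20, cleaved an Abz/nitrotyrosine-quenched decapeptide. Fluorescence (ex 320, em 430) was read at 0 and 20 min at room temperature. Delta was normalized to 5.8 microM ADEP and DMSO/no-enzyme controls.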
miR-21 reporter = miR-21 reporter, rising signal; HeLa miR-21 FLuc reporter, luciferase, 48 h; Potency, µM (top dose mostly 38.3 µM), without a hit: at the highest dose reporter change, positive = more light; 340,000 tested, under 10 active; active = well fitted rising curve with a large enough effect; inconclusive = small, poorly fitted or top-dose-only effect; inactive = no such curve, though single readings can be large or run the other way;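 further: % of control where 0% means no effect; miR-21 action dims this reporter so a rising signal means less miR-21 action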
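HeLa miR-21-FLuc reporter line, endogenous miR-21; 2000 cells/well in DMEM/10% FBS; compound titration up to ~40uM final, 48 h, 37 degree Celsius; luciferase detection reagent, 15 min lysis, CCD luminescence.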
TrxR1 substrate = substrates of rat thioredoxin reductase 1 | O89049 | purified TrxR1 substrate turnover, NADPH consumption readout | Potency, µM (doses to about 114 µM), for inactives: at the highest dose activity change, negative = substrate turnover | 390,000 tested, 0.01% active | AID 588456; also: potency is read from the fitted curve at half-maximal effect; % is scaled to controls: 0 for no effect and ±100 for the full control effect; nearly all actives have a fitted effect of over 50% in size
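Rat TrxR1, dispensed at 90 nM, was prereduced with 400 uM NADPH (final) for 5 min at ~22 deg C, then incubated with compound 15 min before 400 uM selenite. A first-read NADPH fluorescence drop versus no-compound background flagged substrates.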
* marks the source's active call; other numbers are inactive results; [ ] = remark or other dose. In the library only some 2.5% were active in any assay of this set; here they are far more common. Unless noted, calls follow the shape of the dose curve; as a rule, active = well fitted curve in the direction sought with a large enough effect; inconclusive = small, poorly fitted or top-dose-only effect, or another doubt; inactive = no such curve, though single readings can be large; an effect the other way counts as inactive or inconclusive.

Results for Cc1cccc(N2C(=O)CSC23C(=O)N(Cc2cccc(C(F)(F)F)c2)c2ccccc23)c1 (configuration not stated) ?
Apoferritin bind: -8%; rTrxR1 inhibitor: 8%; ClpP mod: -2%; miR-21 reporter: -4%; TrxR1 substrate: -2%

What do the screens show for `COc1ccc(CN(Cc2ccco2)C(=O)COc2ccccc2OC)cc1`?
Apoferritin bind: -12%; rTrxR1 inhibitor: 8%; ClpP mod: 0%; miR-21 reporter: -3%; TrxR1 substrate: -4%

What do the screens show for `O=C(O)CCSc1ccc([N+](=O)[O-])cc1[N+](=O)[O-]`?
Apoferritin bind: -12%; rTrxR1 inhibitor: 71µM*; miR-21 reporter: 1%; TrxR1 substrate: -3%

What do the screens show for `CC1CC(C)(C)Nc2ccc(OC(=O)c3ccco3)cc21` (configuration not stated)?
Apoferritin bind: inconclusive; rTrxR1 inhibitor: -8%; ClpP mod: 0%; miR-21 reporter: inconclusive; TrxR1 substrate: -10%

What do the screens show for `CC1CC(C)(C)Nc2ccc(N=O)cc21` (configuration not stated)?
Apoferritin bind: -21%; rTrxR1 inhibitor: 0.89µM*; ClpP mod: 3%; miR-21 reporter: inconclusive; TrxR1 substrate: -4%[57.1 µM]

What do the screens show for `COc1ccc(-c2cc3ccccc3n2CC(O)CNC(CO)(CO)CO)cc1` (configuration not stated)?
Apoferritin bind: -17%; rTrxR1 inhibitor: 23%; ClpP mod: 35µM*; miR-21 reporter: -14%; TrxR1 substrate: 69%

What do the screens show for `COc1ccc(-c2cc3ccccc3n2CC(O)CN2CCC(C)CC2)cc1` (configuration not stated)?
Apoferritin bind: -8%; rTrxR1 inhibitor: 18%[57.1 µM]; ClpP mod: 4%; miR-21 reporter: 12%; TrxR1 substrate: 10%[57.1 µM]

What do the screens show for `COc1ccc(-c2cc3ccccc3n2CC(O)Cn2nc(C)cc2C)cc1` (configuration not stated)?
Apoferritin bind: -12%; rTrxR1 inhibitor: 2%; ClpP mod: 22µM*; miR-21 reporter: -12%; TrxR1 substrate: 24%

What do the screens show for `Cc1ccc2c(c1)c1c(n2CC(O)CNC(CO)(CO)CO)CCCC1` (configuration not stated)?
Apoferritin bind: 2%; rTrxR1 inhibitor: 8%; ClpP mod: 5%; miR-21 reporter: -5%; TrxR1 substrate: 8%

How did Cc1[nH]c2ccccc2c1-c1nc2ccccc2[nH]1 do in these assays?
Apoferritin bind: -18%; rTrxR1 inhibitor: 2%; ClpP mod: 16µM*; miR-21 reporter: -25%; TrxR1 substrate: 18%

What do the screens show for `Cc1ccc(-c2nc3ccccc3[nH]2)s1`?
Apoferritin bind: 3%; rTrxR1 inhibitor: -3%[57.1 µM]; ClpP mod: -2%; miR-21 reporter: -20%; TrxR1 substrate: 23%[57.1 µM]

Results for Cc1nnsc1-c1nc2ccccc2[nH]1 ?
Apoferritin bind: 13%; rTrxR1 inhibitor: 26%[57.1 µM]; ClpP mod: 25µM*; miR-21 reporter: -7%; TrxR1 substrate: 124%[57.1 µM]

What do the screens show for `COc1ccccc1CCNC(=O)C(=O)NCC(c1ccco1)S(=O)(=O)c1ccc(F)cc1` (configuration not stated)?
Apoferritin bind: -9%; rTrxR1 inhibitor: -9%[57.1 µM]; ClpP mod: 1%; miR-21 reporter: 18%; TrxR1 substrate: 0%[57.1 µM]

Results for Cc1ccccc1NC(=O)N(O)C1(C#N)CCCCC1 ?
rTrxR1 inhibitor: 4%[57.1 µM]; ClpP mod: 32µM*; TrxR1 substrate: 9%[57.1 µM]

Results for Cc1ccc(C)c(CN2CCC(CNC(=O)C(CC(C)C)N3Cc4ccccc4C3=O)CC2)c1 (configuration not stated) ?
Apoferritin bind: inconclusive; rTrxR1 inhibitor: 7%; ClpP mod: 1%; miR-21 reporter: 21%; TrxR1 substrate: 2%

How did FC(F)(F)c1cc(-c2ccccc2)nc(NC2CCCC2)n1 do in these assays?
Apoferritin bind: -16%; rTrxR1 inhibitor: -4%; ClpP mod: 32µM*; miR-21 reporter: 0%; TrxR1 substrate: -3%

Results for CCN(CC)c1ccc(C(=O)OCc2cc(=O)oc3cc(O)ccc23)cc1 ?
Apoferritin bind: inconclusive; rTrxR1 inhibitor: -18%; ClpP mod: 32µM*; miR-21 reporter: -8%; TrxR1 substrate: -8%

Results for CCN(CC)c1ccc2c(O)cc(=O)oc2c1 ?
Apoferritin bind: 36%; rTrxR1 inhibitor: 19%[57.1 µM]; miR-21 reporter: -4%; TrxR1 substrate: 77%

How did CC(=O)Nc1nonc1-c1nnc(SCc2cccc(Br)c2)n1C do in these assays?
Apoferritin bind: inconclusive; rTrxR1 inhibitor: 17%; ClpP mod: 1%; miR-21 reporter: -1%; TrxR1 substrate: 15%

What do the screens show for `Cc1ccn2cc(-c3cnoc3C)nc2c1`?
Apoferritin bind: -6%; rTrxR1 inhibitor: -6%; ClpP mod: 14µM*; miR-21 reporter: -52%; TrxR1 substrate: 56%

Reprinted from the part before: 3 entries, followed by the next part.
Results for CCN(CC)c1ccc2c(O)cc(=O)oc2c1 ?
Apoferritin bind: 36%; rTrxR1 inhibitor: 19%[57.1 µM]; miR-21 reporter: -4%; TrxR1 substrate: 77%

How did CC(=O)Nc1nonc1-c1nnc(SCc2cccc(Br)c2)n1C do in these assays?
Apoferritin bind: inconclusive; rTrxR1 inhibitor: 17%; ClpP mod: 1%; miR-21 reporter: -1%; TrxR1 substrate: 15%

What do the screens show for `Cc1ccn2cc(-c3cnoc3C)nc2c1`?
Apoferritin bind: -6%; rTrxR1 inhibitor: -6%; ClpP mod: 14µM*; miR-21 reporter: -52%; TrxR1 substrate: 56%

How did O=c1oc2ccccc2cc1-c1cn2ccccc2n1 do in these assays?
Apoferritin bind: -6%; rTrxR1 inhibitor: -2%[57.1 µM]; miR-21 reporter: inconclusive; TrxR1 substrate: -2%[57.1 µM]

How did Cc1ccc(-c2cn3ccc(C)cc3n2)cc1 do in these assays?
Apoferritin bind: -1%; rTrxR1 inhibitor: 5%; ClpP mod: 0%; miR-21 reporter: inconclusive; TrxR1 substrate: 96%

Results for Cc1oncc1-c1cn2ccccc2n1 ?
Apoferritin bind: -2%; rTrxR1 inhibitor: 8%; ClpP mod: 25µM*; miR-21 reporter: -11%; TrxR1 substrate: 47%

How did CC(C)C(=O)Nc1ccc2nn(-c3ccccc3)nc2c1 do in these assays?
Apoferritin bind: -11%; rTrxR1 inhibitor: 24%; ClpP mod: -3%; miR-21 reporter: -21%; TrxR1 substrate: 45%[57.1 µM]

What do the screens show for `CC(=O)Nc1cc2nn(-c3ccccc3)nc2cc1Cl`?
Apoferritin bind: -7%; rTrxR1 inhibitor: 23%; ClpP mod: 20µM*; miR-21 reporter: -66%; TrxR1 substrate: 58%

Results for CC(C)(C)C(=O)Nc1cc2nn(-c3ccccc3)nc2cc1Cl ?
Apoferritin bind: -21%; rTrxR1 inhibitor: -2%[57.1 µM]; ClpP mod: 28µM*; miR-21 reporter: 1%; TrxR1 substrate: 37%[57.1 µM]

What do the screens show for `CC(C)COc1ccc(C(=O)Nc2cc3nn(-c4ccccc4)nc3cc2Cl)cc1`?
Apoferritin bind: -7%; rTrxR1 inhibitor: 45%; ClpP mod: -14%; miR-21 reporter: -7%; TrxR1 substrate: 21%

How did CCN(Cc1ccccc1)C(=O)Cn1c(=O)n(-c2cccc(C)c2)c(=O)c2c1c1cc(C)ccc1n2C do in these assays?
Apoferritin bind: -12%; rTrxR1 inhibitor: 21%; ClpP mod: 4%; miR-21 reporter: 0%; TrxR1 substrate: 23%

Results for COc1ccc(Cl)cc1NC(=O)N1CCC(CN2CCc3ccccc3C2)CC1 ?
Apoferritin bind: -2%; rTrxR1 inhibitor: 5%; ClpP mod: -6%; miR-21 reporter: 6%; TrxR1 substrate: -6%

Screens deposited in PubChem BioAssay by National Center for Advancing Translational Sciences (NCATS).
